Publication PMC4008364, “Alleviation of behavioral hypersensitivity in mouse models of inflammatory pain with two structurally different casein kinase 1 (CK1) inhibitors” (Molecular Pain, 2014)

Amino acid sequences for entries named in this document (tags omitted). A change or cut given only in a name is not applied to a line headed by its entry.
UniProt P48730: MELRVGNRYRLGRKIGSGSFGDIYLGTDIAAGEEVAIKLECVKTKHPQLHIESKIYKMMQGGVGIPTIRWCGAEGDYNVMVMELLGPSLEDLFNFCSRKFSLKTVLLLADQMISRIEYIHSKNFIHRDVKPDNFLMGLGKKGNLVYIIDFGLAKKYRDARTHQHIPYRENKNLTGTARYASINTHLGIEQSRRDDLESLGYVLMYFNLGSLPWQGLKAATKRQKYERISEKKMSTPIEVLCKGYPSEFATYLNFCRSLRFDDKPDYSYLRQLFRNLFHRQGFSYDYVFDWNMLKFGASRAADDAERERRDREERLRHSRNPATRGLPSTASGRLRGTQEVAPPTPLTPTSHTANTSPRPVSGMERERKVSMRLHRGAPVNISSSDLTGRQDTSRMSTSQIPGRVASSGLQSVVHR

Target: CK1δ (Homo sapiens, UniProt P48730)
Assay: PER3 nuclear translocation assay, HEK293 cells expressing CK1δ
Conditions: 1 μM

SMILES: Nc1nccc(-c2c(-c3ccc(F)cc3)ncn2C2CCCCC2)n1 [PF-670462]
- CK1δ-induced nuclear translocation of mCherry-PER3 (1 hour pre-incubation, 8 hours doxycycline, HEK293): also inhibited the nuclear translocation
- mCherry-PER3 nuclear/cytoplasmic ratio, CK1δ (compared to TG001 or vehicle, n = 20 images): significantly decreased
